Measurements: PubChem BioAssay AID588391 (Broad Institute, 2011)
Only a part is listed here, and it is no random draw. Active and inactive are the calls of the source.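 The calls were made as follows: active = mean inhibition across replicates of 30% or more, whatever share of single replicates reach that level; inconclusive = mean inhibition below 30% while every single replicate reaches 30%; inactive = the rest.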

Chains of the proteins cited; added tags and fusions are not shown.
UniProt P07237, whole entry: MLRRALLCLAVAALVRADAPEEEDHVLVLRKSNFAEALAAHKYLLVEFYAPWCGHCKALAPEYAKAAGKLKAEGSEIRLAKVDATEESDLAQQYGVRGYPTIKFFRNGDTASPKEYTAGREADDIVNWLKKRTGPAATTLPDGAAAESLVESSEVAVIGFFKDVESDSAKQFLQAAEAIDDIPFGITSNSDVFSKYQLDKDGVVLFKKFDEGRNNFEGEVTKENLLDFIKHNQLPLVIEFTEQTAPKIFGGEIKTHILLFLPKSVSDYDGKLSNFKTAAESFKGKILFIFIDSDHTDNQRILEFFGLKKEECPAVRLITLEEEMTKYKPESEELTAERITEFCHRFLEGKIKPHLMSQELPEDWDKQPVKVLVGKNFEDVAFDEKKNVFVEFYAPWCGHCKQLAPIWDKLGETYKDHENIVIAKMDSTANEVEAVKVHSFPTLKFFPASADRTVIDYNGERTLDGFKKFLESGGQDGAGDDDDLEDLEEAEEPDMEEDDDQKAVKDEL

These molecules were tested against Protein disulfide-isomerase (Homo sapiens) (UniProt P07237) (assay: inhibitors of human PDI, primary screen, biochemical, turbidity, single point, plate reader (AID 588391;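 also: absorbance from insulin aggregation driven by PDI reduction with DTT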)). Conditions: PDI insulin aggregation turbidity, A650, 90 min; at 10 µM; stronger effect = higher value.

Compound | inhibition
CCOC(=O)c1ccc(NP(C)(=O)Oc2ccccc2)cc1 (centres undefined) | inactive: -0.648%
CCN(CC)CCCOC(=O)C(O)(c1ccccc1)c1ccccc1 | inactive: 0.0095%
CCc1ccc(OP(C)(=O)N2CCN(c3ccc([N+](=O)[O-])cc3)CC2)cc1 (centres undefined) | inactive: 4.78%
CP(=O)(NC(=O)Nc1ccccc1)Oc1ccccc1 (centres undefined) | inactive: 1.81%
Cc1cc(C)cc(OP(C)(=O)Nc2ccc(SC(F)(F)F)cc2)c1 (centres undefined) | inactive: -3.89%
Cc1ccc(Nc2c([N+](=O)[O-])cc([N+](=O)[O-])cc2[N+](=O)[O-])cc1 | inactive: 1.3%
Cc1cccc(C)c1OP(C)(=O)Nc1ccc(SC(F)(F)F)cc1 (centres undefined) | inactive: 4.54%
CP(=O)(Nc1ccc(SC(F)(F)F)cc1)Oc1ccc(Cl)cc1 (centres undefined) | inactive: -2.74%
CP(=O)(Oc1ccccc1)OC(c1ccccc1)C(F)(F)F (centres undefined) | inactive: 4.35%
CP(=O)(Nc1ccccn1)Oc1ccc(Cl)cc1 (centres undefined) | inactive: -0.0065%
CCOC(=O)c1ccc(NP(C)(=O)Oc2ccc(OC)cc2)cc1 (centres undefined) | inactive: -2.01%
O=[N+]([O-])c1cc([N+](=O)[O-])c(O)c([N+](=O)[O-])c1.c1ccc(Oc2ccncc2)cc1 | inactive: 0.221%
CCOP(C)(=S)SCC(=O)NC(C)C(=O)O (centres undefined) | inactive: 1.65%
CP(=O)(Nc1ccccc1Br)Oc1ccccc1 (centres undefined) | inactive: 9.23%
COc1ccccc1OP(C)(=O)Nc1ccccc1 (centres undefined) | inactive: 2.99%
CP(=S)(Nn1cnnc1)Oc1ccccc1 (centres undefined) | inactive: 8.05%
O=[N+]([O-])c1cc([N+](=O)[O-])c(Nc2nnnn2CCO)c([N+](=O)[O-])c1 | inactive: 10.6%

Compound | inhibition
CC1=C2N=C(C=C3N=C(C(C)=C4[N-][C@@](C)([C@@H]5N=C1[C@](C)(CCC(=O)NC[C@@H](C)OP(=O)([O-])O[C@H]1[C@@H](O)[C@@H](n6cnc7cc(C)c(C)cc76)O[C@@H]1CO)[C@H]5CC(N)=O)[C@@](C)(CC(N)=O)[C@@H]4CCC(N)=O)[C@@](C)(CC(N)=O)[C@@H]3CCC(N)=O)C(C)(C)[C@@H]2CCC(N)=O.[C-]#N.[Co+3] | inactive: 2.47%
CCOC(=O)C(CC)C1=NC(C)(C)Cc2ccccc21.O=[N+]([O-])c1cc([N+](=O)[O-])c(O)c([N+](=O)[O-])c1 (centres undefined) | inactive: 0.825%
CP(=O)(Nc1ccc(SC(F)(F)F)cc1)Oc1ccccc1 (centres undefined) | inactive: -5.95%
CCCOc1ccc(NP(C)(=O)Oc2ccc(Cl)cc2)cc1 (centres undefined) | inactive: 3.87%
COc1ccccc1OP(C)(=O)Nc1c(C)cccc1C (centres undefined) | inactive: 4.89%
CN1CCCCC1COC(=O)C1(O)c2ccccc2CCc2ccccc21 (centres undefined) | inactive: -17%
O=[N+]([O-])c1cc([N+](=O)[O-])c(-n2nnc3ccccc32)c([N+](=O)[O-])c1 | inactive: -18.1%
Cc1nc2ccc3ccccc3c2s1.O=[N+]([O-])c1cc([N+](=O)[O-])c(O)c([N+](=O)[O-])c1 | inactive: 0.312%
O=[N+]([O-])c1cc([N+](=O)[O-])c(-c2cnn(-c3ccccc3)c2)c([N+](=O)[O-])c1 | inactive: -3.27%
CCOC(=O)c1ccc(NP(C)(=O)Oc2cc(C)cc(C)c2)cc1 (centres undefined) | inactive: -1.98%
Cc1cc(C)cc(OP(C)(=O)Nc2ccc(C)cc2C)c1 (centres undefined) | inactive: -10.4%
COc1ccccc1OP(C)(=O)Nc1cccc(Br)c1 (centres undefined) | inactive: -4.51%
Cc1ccc(C)c(NP(C)(=O)Oc2ccccc2)c1 (centres undefined) | inactive: -5.86%
CP(=O)(Nc1cccc(Br)c1)Oc1ccccc1 (centres undefined) | inactive: -5.08%
Cc1cc(C)cc(OP(C)(=O)Nc2ccccn2)c1 (centres undefined) | inactive: 2.78%
O=C(O)c1cccc(Nc2c([N+](=O)[O-])cc([N+](=O)[O-])cc2[N+](=O)[O-])c1 | inactive: -1.03%
CC1=NCCc2c1[nH]c1ccccc21.O=[N+]([O-])c1cc([N+](=O)[O-])c(O)c([N+](=O)[O-])c1 | inactive: 1.29%
